{"source": "patent US7435386B2", "about": "“Reagentless and reusable biosensors with tunable differential binding affinities and methods of making” (dated 2008)", "origin": "cited, not measured here", "conditions": "cited from earlier work", "note": "Some compounds may have been tested in ways that are not shown here."}
{"compound": "Cc1c([N+](=O)[O-])cc([N+](=O)[O-])cc1[N+](=O)[O-]", "values": [{"measurement": "TNT solubility in aqueous solutions", "result": 100, "unit": "µg/mL"}]}
